Patent US7189859B2, “Radiolabelled phenylethyl imidazole carboxylic acid ester derivatives” (priority 2003, dated 2007)

Legend:
adrenals = assay: In vivo evaluation of ^131I-MTO (organ distribution after tail vein injection); settings: rats, intravenous (tail vein)
Procedure: Method: ^131I-MTO was used with a radiochemical purity >99% and a specific activity of 57 GBq/μmol. The radiotracer (0.5–1.1 MBq; […]) was injected into the tail vein of rats (female, 180–220 gram). Groups of four rats were sacrifized at specified times up to 24 hours post injection. The organs were excised and weighed, the radioactivity was measured at constant geometry using a gamma-spectrometer with a Nal(TI)-crystal. The data were expressed as percent of injected dose (ID) per organ and as percent of ID per gram tissue.

[1] = biological target: T1, rat adrenal membranes (cytochrome P-450 β-hydroxylase) (Rattus norvegicus, UniProt P15393); assay: [^131I]MTO binding to rat adrenal membranes (association, dissociation, saturation); settings: saturation analysis, 2–100 nM 4-iodo-MTO carrier, 30 minutes incubation, pH 7.1; (15)
T1 sequence (P15393 25-499): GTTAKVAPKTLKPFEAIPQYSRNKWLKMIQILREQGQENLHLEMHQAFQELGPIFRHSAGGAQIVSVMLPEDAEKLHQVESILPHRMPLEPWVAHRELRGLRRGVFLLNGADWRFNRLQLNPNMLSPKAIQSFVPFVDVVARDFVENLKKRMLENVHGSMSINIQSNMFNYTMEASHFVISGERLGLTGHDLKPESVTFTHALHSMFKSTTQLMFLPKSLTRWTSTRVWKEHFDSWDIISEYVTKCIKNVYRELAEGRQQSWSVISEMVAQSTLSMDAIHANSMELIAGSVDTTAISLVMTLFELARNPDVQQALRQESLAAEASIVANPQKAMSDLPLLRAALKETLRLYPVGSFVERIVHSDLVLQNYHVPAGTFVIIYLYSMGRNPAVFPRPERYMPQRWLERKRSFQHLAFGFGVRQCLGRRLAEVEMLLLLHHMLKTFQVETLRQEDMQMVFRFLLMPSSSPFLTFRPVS
Procedure: Whole adrenals from adult male Wistar rats were homogenized in 10 mM K2HPO4/10 mM HEPES (pH 7.1) with a glass/teflon piston (Potter-type). The homogenate was centrifuged at 35.000×g for 10 min, the pellet was resuspended in fresh buffer and centrifuged again. Membranes were washed 2 more times and stored as aliquots at −80° C.
After incubation, membranes with bound radioligand were isolated by filtration through Whatman GF/B glass fiber filters (presoaked in buffer), followed by 2×4 mL washings with buffer, then filters were measured in a gamma-spectrometer.
For dissociation experiments, membranes were fully equilibrated with 2 nM radioligand, and the dissociation was initiated by the addition of excess unlabelled 4-iodo-MTO and stepwise filtration at 15 sec intervals.
For saturation studies 2–100 nM 4-iodo-MTO carrier was used. See summary in FIG. 1. […] Incubation for 30 minutes using 10 mM K2HPO4/10 mM HEPES, 150 mM NaCl (pH 7.1).

For `COC(=O)c1cncn1[C@H](C)c1ccc([131I])cc1` [[^131I]MTO, (R)-3-[1-(4-[^131I]iodophenyl)ethyl]-3H-imidazole-4-carboxylic acid methyl ester], the “time of highest contrast for imaging of the adrenals (target-to-non-target-ratios)” value (adrenals) was “up to one hour post injection” and the Bmax [1] was 2.4±0.4 pmol/mg tissue.
